This is a sample that favours compounds with a hit; in the whole collection about 1.2% have one here.
Rce1 inh = inhibitors of yeast Ras-converting enzyme. Q03530. yeast membranes, quenched prenylated peptide cleavage fluorescence. calls only. 290,000 tested, 0.27% active. AID 2563;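 active = fall in fluorescence gain of 50% or more versus controls, with final raw signal at or below 3038400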;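 also: plate controls were neutral control wells for no effect and wells lacking membranes for full effect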
TbMetRS inhib = Trypanosoma brucei MetRS inhibition; purified T. brucei MetRS, ATP depletion, Kinase-Glo luminescence; inhibition, % at 11.9 µM; 360,000 tested, 0.4% active; AID 624268;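 active = inhibition above a per-plate cutoff of the control wells' mean inhibition plus 3 SD, cut at about 5.5% in these data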;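 also: 0% = DMSO wells median and 100% = median of wells with control inhibitor compound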
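Assay system: T. brucei methionyl-tRNA synthetase, purified | Medium: HEPES buffer with MgCl2, KCl, DTT, spermine, BSA, pyrophosphatase | Compound: 11.9 µM single point | Incubation: 15 min enzyme-compound preincubation, 2 h reaction, 10 min detection, 25 °C | Measured by: Kinase-Glo luciferase luminescence reporting remaining unconsumed ATP | Measure: % inhibition normalized to control-well medians | Replication: Singlicate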
Arrestin-AP2 inh = inhibitors of human beta-arrestin and AP2 interaction | FITC-arrestin peptide / GST-AP2 beads, flow cytometry; AP2 beta2 appendage carries R879A mutation | inhibition, % at 10 µM | 340,000 tested, 0.31% active;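 active = inhibition above a set limit, near 3 SD of compounds lacking own fluorescence, cut at about 54% in these data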;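 also: plate controls were DMSO wells for no effect and 5 µM unlabelled arrestin peptide for full effect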
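test system = AP2 appendage R879A on GSH beads | buffer or medium = PBS plus Tween 20 (0.05%) and BSA (0.1%) | incubation = 12 min plus 1 h, RT | detection = bead flow cytometry, FITC channel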
UUG fidelity = modulators of yeast start codon fidelity, primary screen, whole organism, S. cerevisiae, single point, plate reader; S. cerevisiae UUG-firefly luciferase reporter, luminescence/redox ratio; activity score, % at 18.7 µM; 0.13% of 350,000 active; AID 602363, 2012;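 active = replicate mean at a twofold rise or more, about +100% in these data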;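 also: firefly luciferase made from a UUG start codon reports start codon fidelity; reporter light over untreated wells divided by growth signal over untreated wells; some hits fall short of that in this replicate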
Pemphigus Ab inh = human desmoglein-3 autoantibody binding inhibition; binding (percent of control), % at 10 µM; P32926; DSG3-coupled beads, scFv-anti-DSG3-GFP binding, flow cytometry; stronger effect = lower value; AID 588358; 310,000 tested, 0.48% active;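 active = binding more than 3 SD below its plate's average and above zero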;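 also: hits lower antibody fragment binding to DSG3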
Starred values were filed as active, the others as inactive; i = inactive; / = no result; + = active, no number.

Letters: A = Rce1 inh; B = TbMetRS inhib; C = Arrestin-AP2 inh; D = UUG fidelity; E = Pemphigus Ab inh
O=C(NC1CC1)c1ccc2c(c1)N(Cc1ccccc1)CCS2
  A = +; B = 0; C = 45; D = 11; E = 93

O=C(C[C@@H]1C=C[C@@H](NS(=O)(=O)c2ccc(F)cc2)[C@H](CO)O1)NCCN1CCCCC1
  A = /; B = /; C = /; D = 0; E = /

O=C(CSc1nc2ccccc2s1)N1N=C(c2cccs2)CC1c1ccc(F)cc1 (stereo not given)
  A = +; B = -1; C = 15; D = 11; E = 108

CN(C)Cc1cc(O)c(CN(C)C)cc1O
  A = i; B = 1; C = 17; D = /; E = 92*

Cc1cccc(-n2nc3c(c2NC(=O)c2ccco2)CS(=O)C3)c1C (stereo not given)
  A = i; B = 0; C = -7; D = /; E = 100

Cc1cccc(-n2nc3c(c2NC(=O)c2ccco2)CSC3)c1C
  A = i; B = 0; C = 4; D = 9; E = 87*

CO[C@@H]1CN(C)C(=O)c2cc(NC(C)=O)ccc2OC[C@@H](C)N(Cc2ccncc2)C[C@@H]1C
  A = /; B = /; C = /; D = -12; E = /

Cc1cccc(NS(=O)(=O)c2ccc(C)c(C(=O)OCC(=O)Nc3cc(C)on3)c2)c1
  A = +; B = -1; C = 9; D = 7; E = 106

Cc1nn(-c2ccc(F)cc2)c2nc(N)c(C#N)c(-c3ccc(O)c(O)c3)c12
  A = i; B = -1; C = 8; D = -7; E = 95

COc1cc(-c2c(C#N)c(N)nc3c2c(C)nn3-c2ccc(C)c(C)c2)cc(OC)c1OC
  A = +; B = -1; C = 14; D = -17; E = 124

C[C@@H]1CN([C@H](C)CO)C(=O)c2cc(C3=CCCCC3)cnc2O[C@H]1CN(C)C(=O)NC1CCCC1
  A = /; B = /; C = /; D = 2; E = /

O=C(CCN1CCCCC1)N[C@@H]1CC[C@H](CCNS(=O)(=O)c2ccc(F)cc2)O[C@@H]1CO
  A = /; B = /; C = /; D = -2; E = /

CC(C)(C)NC(=O)C(OC(=O)c1cccs1)c1ccc(F)cc1 (stereo not given)
  A = i; B = 0; C = -1; D = /; E = -16*

CC(C)(C)NC(=O)C(OC(=O)c1cccs1)c1ccccc1 (stereo not given)
  A = i; B = 0; C = -6; D = /; E = 97

O=C(C[n+]1cc2ccccc2c2ccccc21)c1ccccc1
  A = +; B = 0; C = 8; D = /; E = 101

Four entries already listed, arranged by the value under Arrestin-AP2 inh, largest number first.
Molecule | Arrestin-AP2 inh
CN(C)Cc1cc(O)c(CN(C)C)cc1O | 17
O=C(CSc1nc2ccccc2s1)N1N=C(c2cccs2)CC1c1ccc(F)cc1 (stereo not given) | 15
O=C(C[n+]1cc2ccccc2c2ccccc21)c1ccccc1 | 8
Cc1cccc(-n2nc3c(c2NC(=O)c2ccco2)CS(=O)C3)c1C (stereo not given) | -7

(cont.)
Letters: A = Rce1 inh; B = TbMetRS inhib; C = Arrestin-AP2 inh; D = UUG fidelity; E = Pemphigus Ab inh
O=C(Nc1nnc(C23CC4CC(CC(C4)C2)C3)s1)c1ccco1
  A = i; B = 0; C = -2; D = -13; E = 71*

C=CCNCC(=O)N1N=C(c2ccc3ccccc3c2)CC1c1ccc(OC)cc1 (stereo not given)
  A = i; B = 0; C = 0; D = /; E = 102

COc1ccc(C2CC(c3ccc4ccccc4c3)=NN2C(=O)CNC2CCCCC2)cc1 (stereo not given)
  A = +; B = 0; C = 29; D = -14; E = 107

Cc1noc(C)c1S(=O)(=O)N(C)C[C@@H]1Oc2ccc(NC(=O)CCC(F)(F)F)cc2CC(=O)N([C@@H](C)CO)C[C@H]1C
  A = /; B = /; C = /; D = 19; E = /

CCn1c(COc2cccc(C)c2)nnc1SCC(=O)NC1CCCC1
  A = +; B = 0; C = -1; D = -11; E = 92

CCn1c(COc2cccc(OC)c2)nnc1SCC(=O)NC1CCCC1
  A = i; B = -1; C = -12; D = 3; E = 102

COc1cccc(C(=O)N2C[C@H]3[C@@H](c4ccccc42)[C@@H](CO)N3C(=O)NC(C)C)c1
  A = /; B = /; C = /; D = -1; E = /

CCN(CC)c1ccc(/C=N/NC(=O)CNC(=O)c2ccc3c(c2)OCCO3)cc1
  A = i; B = 0; C = -4; D = -11; E = 108

CN(C)c1ccc(/C=N/NC(=O)CNC(=O)c2ccc3c(c2)OCCO3)cc1
  A = +; B = -1; C = 28; D = /; E = 92

Cc1noc(C)c1NC(=O)Nc1ccc2c(c1)C(=O)N([C@H](C)CO)C[C@H](C)[C@H](CN(C)Cc1ccncc1)OCCCC[C@H](C)O2
  A = /; B = /; C = /; D = -4; E = /

O=C(Cc1ccccc1)Nc1ccc(NC(=O)c2cccs2)cc1Cl
  A = i; B = -1; C = -3; D = /; E = 72*

O=C1OCCN1C(=O)[C@H]1[C@H](c2ccc(Cl)cc2)C(c2ccc(F)cc2)=NN1c1ccc(Br)cc1
  A = /; B = -3; C = 13; D = 3; E = 102

O=C1OCCN1C(=O)[C@H]1[C@H](c2ccc(F)cc2)C(c2ccc(F)cc2)=NN1c1ccc(Br)cc1
  A = +; B = 0; C = -10; D = -7; E = 91

CC(Sc1nnc(N)s1)C(=O)Nc1ccc2c(c1)OCO2 (stereo not given)
  A = /; B = -1; C = -2; D = -7; E = 89*

COc1ccc(Cl)cc1C(=O)C1CCCN(Cc2cnc(N3CCOCC3)s2)C1 (stereo not given)
  A = i; B = 0; C = 28; D = /; E = 28*

Cc1nc(Nc2ccccc2F)c2oc3ccccc3c2n1
  A = i; B = 0; C = 2; D = -8; E = 100

Cc1nc(Nc2ccccc2O)c2oc3ccccc3c2n1
  A = i; B = -1; C = 31; D = -7; E = 80*

COc1cccc(Nc2nc(C)nc3c2oc2ccccc23)c1
  A = +; B = 0; C = -4; D = -5; E = 99

C[C@@H]1CN([C@H](C)CO)C(=O)CCCn2cc(nn2)CO[C@H]1CN(C)Cc1ccccc1C(=O)O
  A = /; B = /; C = /; D = 5; E = /

Fc1ccc(-c2nc3ccccn3c2NCc2ccc3c(c2)OCO3)cc1
  A = i; B = -1; C = 12; D = -7; E = 100

Oc1ccc(-c2nc3ccccn3c2NCc2ccc3c(c2)OCO3)cc1
  A = +; B = 0; C = 0; D = 0; E = 112

NC(=NC(=O)c1ccc(Cl)cc1)N1N=CCC1c1ccccc1 (stereo not given)
  A = i; B = -2; C = 4; D = -1; E = -11*

CCCC(=O)Nc1ccc2c(c1)C(=O)N(C)C[C@H](OC)[C@@H](C)CN(Cc1cncnc1)[C@H](C)CO2
  A = /; B = /; C = /; D = -13; E = /

Cc1nc(NC(=O)c2ccc(-c3cc4ccccc4oc3=O)cc2)ccc1Br
  A = i; B = -1; C = 11; D = /; E = /

Cc1nc(NC(=O)c2cccc(-c3cc4ccccc4oc3=O)c2)ccc1Br
  A = +; B = 0; C = 2; D = /; E = 103

CN(C)CCNc1nc2c(c(=O)[nH]c(=O)n2C)n1CCOc1ccccc1
  A = i; B = -2; C = 9; D = /; E = 81*

Clc1ccc(-c2nc3cc(CN4CCCCC4)ccc3o2)cc1
  A = i; B = -1; C = 0; D = -20; E = 72*

C=CCNC(=O)[C@H]1[C@@H]2C(=O)O[C@@H](c3ccccc3)[C@@H](c3ccccc3)N2[C@@H](c2ccc(O)cc2)[C@]12C(=O)N(C(=O)OCCOC)c1ccc(C#CC3(O)CCCCCC3)cc12
  A = /; B = /; C = /; D = -3; E = /

c1ccc(-c2ccccc2OCCCN2CCCC2)cc1
  A = i; B = 0; C = 23; D = -9; E = 72*

CC1C=NC(S(=O)(=O)N2CC[C@@H]3[C@H](CO)N(C)c4ccc(-c5ccccc5F)cc4[C@@H]32)=N1 (stereo not given in full)
  A = /; B = /; C = /; D = -2; E = /

O=C(NC(=S)NNC(=O)c1cccs1)c1ccccc1
  A = i; B = 0; C = 5; D = -30; E = /

Cc1ccccc1C(=O)NNC(=S)NC(=O)c1cccs1
  A = i; B = 0; C = 1; D = -29; E = 79*

CC(C)(C)c1ccc(C(=O)NC(=S)NNC(=O)c2cccs2)cc1
  A = i; B = -1; C = 30; D = -42; E = 81*

C[C@H](CO)N1C[C@H](C)[C@@H](CN(C)C(=O)C2CCC2)Oc2cc(C#CCN(C)C)ccc2S1(=O)=O
  A = /; B = /; C = /; D = -2; E = /

CN(C)C(=O)C[C@H]1CC[C@@H](NC(=O)NC2CCCCC2)[C@H](CO)O1
  A = /; B = /; C = /; D = 6; E = /

Cc1cc2cc(CNC(=O)Nc3ccccc3)ccc2[nH]1
  A = i; B = 0; C = 6; D = -8; E = 76*

Screens from PubChem.
